# Experimental data as given in PubChem BioAssay AID869 (SRMLSC, 2007).
# Only a part is listed here, and it is no random draw. Activity calls are given as the source filed them.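 The calls were made as follows: active = inhibition over a set limit, the all-compound mean plus 3 SD, in both replicate runs; inconclusive = over that limit in just one replicate run; inactive = at or under that limit in both runs.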
# Assay: inhibitors of the yeast RAM network, pilot screen, dse1pr::URA3 reporter, 5-FOA selection (AID 869);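 also: 0% = DMSO wells with no growth and 100% = 10 µM 1-NA-PP1 with full growth; RAM network block rescues cells from 5-FOA so hits raise OD615 growth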
# Conditions: S. cerevisiae dse1pr::URA3 5-FOA growth, OD615, 2 d; at 10 µM; hits give high values; strain carries analog-sensitive mutant Cbk1 kinase
row,SMILES,inhibition
1,CP(=O)(Oc1ccccc1)N1CCOC1=O (stereo not given),inactive: 3.34%
2,CP(=O)(Nc1ccc2c(c1)OCCO2)Oc1ccccc1 (stereo not given),inactive: 2.65%
3,Cc1ccc(C)c(NP(C)(=O)Oc2ccccc2)c1 (stereo not given),inactive: 0.01%
4,CP(=O)(NC(=O)Nc1ccccc1)Oc1ccccc1 (stereo not given),inactive: 1.29%
5,Cc1ccc(NP(C)(=O)Oc2ccccc2)c(C)c1 (stereo not given),inactive: 0.475%
